Laboratory results published in US7504035B2, “Treatment of putrescrible cakes” (United Utilities PLC, priority 2005, dated 2009).

Legend:
E. coli [1] = experiment: E. coli content of raw sewage sludge cake (24.81% solids) treated with ammonium nitrate; conditions: 1.5% ammonium nitrate w/w
E. coli [2] = experiment: E. coli reduction in milled sewage screenings (54.1% solids); conditions: 3% ammonium nitrate w/w, kept in skip 1 week
pH of treated cake = conditions: raw sludge cake, 1.5% ammonium nitrate w/w

In the case of ammonium nitrate, the E. coli content (E. coli [1]; day 0) was 1.41E+06 cfu/g dry weight, the E. coli content (E. coli [1]; day 1) was 3.21E+05 cfu/g dry weight and the E. coli content (E. coli [1]; day 8) was 6.77E+03 cfu/g dry weight. For the same substance, the E. coli content (E. coli [1]; day 22) was 5.12E+03 cfu/g dry weight, the “E. coli content reduced by a factor” value (E. coli [2]) was 275 and the PH (pH of treated cake; day 0) was 5.9. For the same substance, the PH (pH of treated cake; day 1) was 6.1, the PH (pH of treated cake; day 8) was 6.2 and the PH (pH of treated cake; day 22) was 6.9.

Some compounds may have been tested in ways that are not shown here.
